Ab-14 light chain CDR variants: yeast mating affinities

Binding partner: SARS-CoV-2 spike HR2 peptide, sequence PDVDLGDISGINAS.

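AAYL50 was designed without a model: most single CDR substitutions and a random sample of double and triple ones. In AlphaSeq, yeast of one mating type display the scFv and yeast of the other type display the target. The frequency of each diploid, read from paired DNA barcodes, reflects how well the two displayed proteins bind. Each replicate has its own calibration line, from reference interactions of the BCL2 family. There are three technical replicates.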

Parent: Ab-14, a human scFv built as VH, the linker GGGGSGGGGSGGGGS, VL. Only the CDRs of the light chain vary.
VH: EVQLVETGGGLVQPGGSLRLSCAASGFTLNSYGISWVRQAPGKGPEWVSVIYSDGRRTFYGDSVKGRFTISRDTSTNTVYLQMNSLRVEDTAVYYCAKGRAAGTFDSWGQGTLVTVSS
VL: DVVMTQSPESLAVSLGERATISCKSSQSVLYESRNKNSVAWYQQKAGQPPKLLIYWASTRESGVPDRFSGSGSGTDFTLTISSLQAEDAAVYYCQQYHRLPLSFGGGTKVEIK

Each variant is given by its three light chain CDRs, as the data file delimits them; those of the parent are KSSQSVLYESRNKNSVA, WASTRES, QQYHRLPLS.
Numbers give log10(Kd / nM), so 0 is 1 nM and 3 is 1 µM. Smaller is tighter.
Averages over replicates are reported, and they cover detected replicates only.
A pair that was not seen in that replicate is written "nd"; this usually means weak binding, but a binder can also be missed.
As a blank, each scFv also met three strains without target: over library AAYL50, 18% of these pairings were detected, typically at 4.19 and seldom below 2.99. The control count says in how many pairings with the empty strains this scFv gave a signal, with their mean in brackets.

CDR-L1	CDR-L2	CDR-L3	replicates, log10 nM	mean log10 Kd (nM)	signal with controls
KSSQRVLYESRSKNSVA	WAHTRES	QQYHRLPLS	nd nd 4.52	4.52	1/9 (5.27)
KRSQSVLYESRNKNSVA	WASTRES	QQYPRLPLL	1.63 1.66 1.87	1.72	1/9 (4.16)
KSSQSVLYESRNKTSVG	WASTRES	QQYHRMPLS	nd nd 4.93	4.93	0/9
KSSQSVLYESRNKNSVA	WASTREE	QQYHREPLS	1.73 1.66 1.89	1.76	0/9
KSSQSVLYESRNINSVA	WASTRES	QQYHRSPLM	nd nd nd	nd	0/9
KSSQSVLYEFRNKNSVA	WASTRES	IQYHRNPLS	2.82 2.26 3.06	2.71	2/9 (4.16)
KSSQVVLYESVNKNSVA	WASTAES	QQYHRLPLS	nd 3.07 4.15	3.61	4/9 (3.87)
KSSQSVLYESRNKNSSA	WASTRES	QCYDRLPLS	nd 3.44 nd	3.44	1/9 (4.77)
KSSQSVLYESRWKNSMA	WASTRES	QQYHRLPYS	nd nd nd	nd	1/9 (3.16)
KSSQSVLFESRNKNSVA	TASTRES	QQTHRLPLS	0.35 0.53 0.38	0.42	3/9 (4.82)
KSSSSLLAESRNKNSVA	WASTRES	QQYHRLPLS	2.17 1.98 2.06	2.07	3/9 (4.75)
KSSQSVLYESRNKISVA	WASTRES	QQYHRLPTS	3.59 nd nd	3.59	1/9 (2.76)
KSSQSWLYESRNKNSEA	WLSTRES	QQYHRLPLS	nd 3.63 nd	3.63	0/9
KSSQSVLYESRNKNSVA	WSSTREW	QWYHRLPLS	5.10 4.61 4.68	4.80	0/9
KSSISVLYESRNKNSTA	WASTDES	QQYHRLPLS	nd nd nd	nd	1/9 (5.25)
KMSQSVLYESRNANSVQ	WASTRES	QQYHRLPLS	4.77 nd nd	4.77	4/9 (4.23)
KSSQSVLYESRNKNSVA	RASTEES	QHYHRLPLS	nd nd nd	nd	1/9 (4.76)
KSQQSVLYESRNKNSVA	WASTRES	QQYHRLFLN	1.87 2.00 2.60	2.16	0/9
KSPQSVLYESRNKLSVA	WASTRES	QIYHRLPLS	3.14 3.72 2.90	3.25	1/9 (4.46)
KSSQSALYESRNFNSSA	WASTRES	QQYHRLPLS	nd nd nd	nd	4/9 (4.52)
KSSQSVHYESRNKNSHA	WASTRES	QQYHRRPLS	nd 3.77 6.00	4.89	4/9 (4.55)
KMSQSTLYESRNKNSVA	WASTRES	QVYHRLPLS	2.62 2.17 2.32	2.37	2/9 (4.14)
KSSQSVLYESRNKNSVA	WASVRWS	QQYHRLFLS	nd 4.65 4.48	4.56	2/9 (4.37)
KSSQSVLYEVPNKNSVA	WASTRES	QQCHRLPLS	1.45 1.34 1.42	1.40	2/9 (4.58)
KSSQSVYYESRNKNSVA	WASTRES	QRYHALPLS	nd nd nd	nd	1/9 (3.46)
KSSQSVLYEYRNKNSVA	WASTRES	QQYHRSPLS	0.47 0.78 1.21	0.82	1/9 (2.95)
KSPQSVLYESRNKNSVA	WASTHES	QQYHRLSLS	nd nd nd	nd	0/9
KSSQSVLYESRNKNSVA	WASYRMS	QQYHRLKLS	nd nd nd	nd	0/9
KSSQSVLYESSNKNSVA	WASTRES	QQYHRLPIC	0.05 0.37 0.20	0.21	2/9 (4.13)
KSSQSVLYESANKNSVA	WASTREY	QQYHRIPLS	0.39 0.61 0.52	0.50	7/9 (5.44)
KSCQSVLYESRNKNSVA	WASTRES	QQQHRLPLP	nd nd nd	nd	0/9
KSSQSVVYESRNKNNVA	WASTREA	QQYHRLPLS	0.39 0.60 0.44	0.48	4/9 (5.53)
KSSQSVLYESRNKNSVA	WASTRQS	QQYHRLPLY	1.91 2.48 2.54	2.31	1/9 (4.01)
KSSQSVLYPSRNKNMVA	WASTRES	QQYFRLPLS	2.65 2.44 2.75	2.62	3/9 (4.04)
KSHQSVLKESRNKNSVA	WASTRES	QIYHRLPLS	nd nd nd	nd	1/9 (4.02)
KSDQSVLYESRNKNSVA	WASTRES	QMYHRLPLS	1.15 0.94 1.31	1.13	0/9
KSSQSVLYESRNKNSVA	WSSTRES	TQYHRAPLS	nd nd nd	nd	3/9 (4.03)
KSSQSVLYESRNKNAVA	WASTRES	QQLHRAPLS	nd nd nd	nd	0/9

Top 4 of the variants detected in all replicates, tightest first:

CDR-L1	CDR-L2	CDR-L3	replicates, log10 nM	mean log10 Kd (nM)	signal with controls
KSSQSVLYESSNKNSVA	WASTRES	QQYHRLPIC	0.05 0.37 0.20	0.21	2/9 (4.13)
KSSQSVLFESRNKNSVA	TASTRES	QQTHRLPLS	0.35 0.53 0.38	0.42	3/9 (4.82)
KSSQSVVYESRNKNNVA	WASTREA	QQYHRLPLS	0.39 0.60 0.44	0.48	4/9 (5.53)
KSSQSVLYESANKNSVA	WASTREY	QQYHRIPLS	0.39 0.61 0.52	0.50	7/9 (5.44)

Data: MIT Lincoln Laboratory AlphaSeq set, Engelhart et al. 2022, doi:10.1038/s41597-022-01779-4, as distributed in FLAb.